target: SHP2 (Homo sapiens (Human), UniProt Q06124); experiment: SHP2 Allosteric Inhibition Assay; assay type: biochemical; conditions: 0.5 nM SHP2 activated with 0.5 μM peptide IRS1_pY1172(dPEG8)pY1222, surrogate substrate DiFMUP, fluorescence

The chains behind the UniProt entries cited, without tags or fusion partners.
UniProt Q06124, whole entry: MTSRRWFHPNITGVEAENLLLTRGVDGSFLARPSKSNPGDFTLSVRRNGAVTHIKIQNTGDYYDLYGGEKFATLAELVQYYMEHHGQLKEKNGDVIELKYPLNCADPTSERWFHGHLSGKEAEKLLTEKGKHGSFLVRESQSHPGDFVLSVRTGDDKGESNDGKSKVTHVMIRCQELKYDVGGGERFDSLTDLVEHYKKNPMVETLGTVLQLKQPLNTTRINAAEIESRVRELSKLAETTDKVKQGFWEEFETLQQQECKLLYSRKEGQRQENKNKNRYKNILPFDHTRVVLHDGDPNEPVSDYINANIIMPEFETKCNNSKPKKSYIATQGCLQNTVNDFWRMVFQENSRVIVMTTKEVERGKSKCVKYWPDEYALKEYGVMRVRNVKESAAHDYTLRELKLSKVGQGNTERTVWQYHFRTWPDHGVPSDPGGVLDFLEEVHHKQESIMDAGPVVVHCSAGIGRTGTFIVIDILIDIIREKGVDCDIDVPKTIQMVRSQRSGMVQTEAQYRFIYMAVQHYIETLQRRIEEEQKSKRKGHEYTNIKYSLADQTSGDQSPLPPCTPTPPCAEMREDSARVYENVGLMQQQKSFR

| IC50 | Compound |
| --- | --- |
| 414 nM | Nc1nc(N2CCC3(CCC3N)CC2)cnc1Sc1cccc(Cl)c1Cl (single isomer, unassigned) [14 P2] |
| 17500 nM | Nc1nc(N2CC3(CCC3N)C2)cnc1Sc1cccc(Cl)c1Cl (racemic) [8 P1] |
| 19 nM | Nc1nc(N2CCC3(CCC3N)CC2)cnc1Sc1cccc(Cl)c1Cl (single isomer, unassigned) [14 P1] |
| 3310 nM | Nc1nc(N2CC3(CCC3N)C2)cnc1Sc1cccc(Cl)c1Cl (racemic) [8 P2] |

same assay, conditions: 0.5 nM SHP2 activated with 0.5 μM peptide IRS1_pY1172(dPEG8)pY1222, surrogate substrate DiFMUP, fluorescence; tested form: HCl

| IC50 | Compound |
| --- | --- |
| 113 nM | Nc1nc(N2CCC3(CCC(F)C3N)CC2)cnc1Sc1cccnc1C(F)(F)F (single isomer, unassigned) [85 enant-P1] |
| 100 nM | Nc1nc(N2CCC3(CCC(F)C3N)CC2)cnc1Sc1cccnc1C(F)(F)F (single isomer, unassigned) [85 P1] |
